# Yeast mating assay 2: variants of the scFv Ab-95

Source: Engelhart et al. 2022 (doi:10.1038/s41597-022-01779-4), MIT Lincoln Laboratory and A-Alpha Bio; data file from the FLAb repository.

Target: peptide PDVDLGDISGINAS, taken from heptad repeat 2 (HR2) of SARS-CoV-2 spike.

Parent scFv Ab-95: VH joined to VL by three GGGGS repeats. Changes lie in the light chain CDRs alone.
VH: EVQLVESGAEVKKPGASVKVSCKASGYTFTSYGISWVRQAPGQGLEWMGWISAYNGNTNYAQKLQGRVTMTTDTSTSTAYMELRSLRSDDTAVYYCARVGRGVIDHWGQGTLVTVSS
VL: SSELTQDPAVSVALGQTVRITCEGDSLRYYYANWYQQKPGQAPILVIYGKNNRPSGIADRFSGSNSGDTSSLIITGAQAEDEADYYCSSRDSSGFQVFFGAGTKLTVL

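The starting antibody came from a phage panning campaign against this peptide. In library AAYL52, one, two or three CDR residues were substituted; doubles and triples were drawn at random. Affinity was read by AlphaSeq, a pooled yeast mating assay with surface-displayed partners. Mating (16 h, 30 °C) was followed by selection of diploids and sequencing of their barcodes. Read counts were normalised to the haploid input and turned into Kd by a linear fit to BCL2-family pairs of known affinity, for each replicate. Each pool was mated in three replicate cultures.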

Changes read parent residue, position, new residue, counted from the first residue of the VL shown.
Every variant below is changed at F98 of the VL (sequential numbering).
Values are log10 of the apparent Kd in nM; lower means stronger binding.
A mean of the replicates is given; it leaves out those without a signal.
An entry "nd" has no value in the source: the pair was not observed among the diploids in any replicate. This suggests poor binding but is not conclusive.
The list is sorted by this average, lowest first, undetected variants last.
Nonspecific signal, from three strains lacking the peptide, appeared in 28% of pairings of library AAYL52, centred on 3.91 (5% of these signals below 2.90); values are not corrected for it.

- Y30A Y31D F98R: 1.23 (3 of 3 replicates)
- F98W: 1.99 (3 of 3 replicates)
- S88G V97T F98G: 2.45 (3 of 3 replicates)
- S92F F95R F98G: 2.46 (3 of 3 replicates)
- E23A D25N F98L: 2.46 (3 of 3 replicates)
- Y29H V97Q F98Y: 2.55 (3 of 3 replicates)
- Y31G F98A: 2.76 (3 of 3 replicates)
- G24S F98A: 2.81 (3 of 3 replicates)
- L27Y F98D: 2.89 (2 of 3 replicates)
- S55I D91S F98R: 3.04 (3 of 3 replicates)
- A32N S55T F98Y: 3.09 (3 of 3 replicates)
- P54M S92H F98L: 3.16 (3 of 3 replicates)
- R28I F98V: 3.42 (3 of 3 replicates)
- P54C G94A F98E: 3.46 (1 of 3 replicates)
- R28D R53I F98M: 3.48 (1 of 3 replicates)
- K50F F95V F98G: 3.52 (3 of 3 replicates)
- Y31Q F95P F98S: 3.58 (3 of 3 replicates)
- D25F V97W F98A: 3.62 (2 of 3 replicates)
- R53L F98S: 3.75 (2 of 3 replicates)
- N51K N52I F98V: 3.76 (2 of 3 replicates)
- K50Y P54W F98C: 3.92 (1 of 3 replicates)
- D25M Y31W F98Y: 3.96 (3 of 3 replicates)
- S26M F98T: 4.15 (3 of 3 replicates)
- N33M N52F F98V: 4.17 (3 of 3 replicates)
- G49H Q96K F98T: 4.25 (3 of 3 replicates)
- S88K S89P F98T: 4.29 (2 of 3 replicates)
- P54Y R90G F98E: 4.33 (2 of 3 replicates)
- N52I G94E F98G: 4.49 (1 of 3 replicates)
- N33P S93I F98T: 4.50 (2 of 3 replicates)
- N33P G94H F98M: 4.88 (1 of 3 replicates)
- N33E S55M F98G: 5.05 (1 of 3 replicates)
- Y31M N33F F98Y: 5.35 (1 of 3 replicates)
- V97A F98P: nd (0 of 3 replicates)
- S88D R90D F98Q: nd (0 of 3 replicates)

The first 2 variants above that were never detected:

| changes | mean log10 Kd (nM) | replicates with signal |
|---|---|---|
| V97A F98P | nd | 0 of 3 |
| S88D R90D F98Q | nd | 0 of 3 |